The values that follow come from ChEMBL document CHEMBL1133817, “Discovery of novel, orally active dual NK1/NK2 antagonists” (Bioorg Med Chem Lett, 2001).

Data set [1] has as its system Substance-P receptor (Oryctolagus cuniculus). Description: Binding constant towards tachykinin receptor 1 using ASMSP as agonist on rabbit pulmonary artery tissues.
Another data set has as its system Canis lupus familiaris. Put plainly: Plasma clearance in dog at a dose of 1 uM/kg was determined. Particulars: read-out: Clp.

What is called pKB is the KB on a negative log10 scale, so that one unit is a factor of ten. Low values mean a large KB, high ones a small KB. The molecule `CC(=O)NC1(c2ccccc2)CCN(CC[C@H](CN(C)C(=O)c2ccccc2)c2ccc(Cl)c(Cl)c2)CC1` gave a negative logarithm of the KB (pKB) in data set [1] of 5.4.

`CN(C[C@@H](CCN1CCC(c2ccccc2[S@+](C)[O-])CC1)c1ccc(Cl)c(Cl)c1)C(=O)c1cc(C#N)cc2ccccc12` (stereo in doubt) [listing 1 of 2 here] gave a negative logarithm of the KB (pKB) in data set [1] of 8.98.

In data set [1], `CN(C[C@@H](CCN1CCC(c2ccccc2[S@+](C)[O-])CC1)c1ccc(Cl)c(Cl)c1)C(=O)c1cc(C#N)cc2ccccc12` (stereo in doubt; 4b) yielded a negative-log KB (pKB) of 8.36.

On to `CN(C[C@@H](CCN1CCC(c2ccccc2[S@+](C)[O-])CC1)c1ccc(Cl)c(Cl)c1)C(=O)c1cc(C#N)cc2ccccc12` (stereo in doubt) [listing 2 of 2 here], for which, in the data set on Canis lupus familiaris, the clearance was determined as 9.5 mL/min/kg.

Consider `COc1cc(C(=O)N2CC[C@](CCN3CCC(C(N)=O)(c4ccccc4)CC3)(c3ccc(Cl)c(Cl)c3)C2)cc(OC)c1OC`, for which the pKB in data set [1] is 7.4.
